PMC12197871 (Protein Science : A Publication of the Protein Society, 2025)
Where two headings read alike, the source gives them in different places.

Protein sequences, listed by entry. Tags and fused reporters are not part of them. Lines headed by an entry give the natural chain unless they say otherwise; changes in a name come on top.
UniProt P00344: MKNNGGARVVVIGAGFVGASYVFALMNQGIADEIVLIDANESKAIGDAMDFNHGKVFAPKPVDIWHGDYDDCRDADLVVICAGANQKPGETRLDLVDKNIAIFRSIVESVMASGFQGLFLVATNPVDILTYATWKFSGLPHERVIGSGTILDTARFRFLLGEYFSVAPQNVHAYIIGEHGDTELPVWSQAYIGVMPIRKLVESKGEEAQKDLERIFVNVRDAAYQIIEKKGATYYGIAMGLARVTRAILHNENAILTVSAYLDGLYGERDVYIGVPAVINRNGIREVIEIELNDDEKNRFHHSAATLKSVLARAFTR

Columns and labels:
GsLDH [1] = molecular target: T1, GsLDH (Geobacillus stearothermophilus, UniProt P00344); assay: Isothermal titration calorimetry of cofactor binding to GsLDH; settings: WT, presence of FBP, 30°C
GsLDH [2] = molecular target: T1, GsLDH; settings: fluorescence spectroscopy, both in the presence and absence of FBP, ref Clarke, Atkinson, et al., 1985; cited from earlier work

Kd (GsLDH [1]): 1200 nM
Substance: reduced nicotinamide adenine dinucleotide [NADH]
Kd (GsLDH [2]): 1500 to 2000 nM
